From BigSolDB 2.1

CCCc1nn(C)c2c(=O)[nH]c(-c3cc(S(=O)(=O)N4CCN(C)CC4)ccc3OCC)nc12.O=C(O)CC(O)(CC(=O)O)C(=O)O
solubility (mole fraction) (in NMP, 293.2 K): 0.05
solubility (mole fraction) (in NMP, 298.2 K): 0.062
solubility (mole fraction) (in NMP, 303.2 K): 0.07
solubility (mole fraction) (in NMP, 308.2 K): 0.078
solubility (mole fraction) (in NMP, 313.2 K): 0.0866
solubility (mole fraction) (in isopropanol, 293.2 K): 5.59e-05
solubility (mole fraction) (in isopropanol, 298.2 K): 7e-05
solubility (mole fraction) (in isopropanol, 303.2 K): 8.78e-05
solubility (mole fraction) (in isopropanol, 308.2 K): 0.000104
solubility (mole fraction) (in isopropanol, 313.2 K): 0.000132
solubility (mole fraction) (in propylene glycol, 293.2 K): 0.000391
solubility (mole fraction) (in propylene glycol, 298.2 K): 0.000424
solubility (mole fraction) (in propylene glycol, 303.2 K): 0.00045
solubility (mole fraction) (in propylene glycol, 308.2 K): 0.000469
solubility (mole fraction) (in water, 293.2 K): 0.000102
solubility (mole fraction) (in water, 298.2 K): 0.000125
solubility (mole fraction) (in water, 303.2 K): 0.000148
solubility (mole fraction) (in water, 308.2 K): 0.000174
solubility (mole fraction) (in water, 313.2 K): 0.000205
